Source: patent publication US6710048B2, “Pyrazine derivatives as modulators of tyrosine kinases” (Ortho-McNeil Pharmaceutical, Inc., priority 2000, dated 2004)

By UniProt entry, the sequences of proteins in these tests, tags left out. Residues count along the entry.
UniProt O08775, 786-1343 limits assumed: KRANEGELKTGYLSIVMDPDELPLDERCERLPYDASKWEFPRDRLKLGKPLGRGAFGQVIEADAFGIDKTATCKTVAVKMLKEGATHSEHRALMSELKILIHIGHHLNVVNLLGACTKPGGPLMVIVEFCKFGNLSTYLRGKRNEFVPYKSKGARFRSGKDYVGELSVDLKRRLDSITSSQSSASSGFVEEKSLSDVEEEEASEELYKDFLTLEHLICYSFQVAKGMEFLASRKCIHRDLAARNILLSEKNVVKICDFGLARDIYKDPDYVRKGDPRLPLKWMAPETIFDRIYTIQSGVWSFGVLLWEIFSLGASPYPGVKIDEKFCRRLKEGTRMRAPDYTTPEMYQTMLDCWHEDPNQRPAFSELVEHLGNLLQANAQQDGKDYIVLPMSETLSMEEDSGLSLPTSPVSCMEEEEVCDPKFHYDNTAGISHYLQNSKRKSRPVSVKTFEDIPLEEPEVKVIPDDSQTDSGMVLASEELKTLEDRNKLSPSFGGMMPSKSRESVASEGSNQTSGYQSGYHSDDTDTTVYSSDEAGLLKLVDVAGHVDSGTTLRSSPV
UniProt P06493, whole entry: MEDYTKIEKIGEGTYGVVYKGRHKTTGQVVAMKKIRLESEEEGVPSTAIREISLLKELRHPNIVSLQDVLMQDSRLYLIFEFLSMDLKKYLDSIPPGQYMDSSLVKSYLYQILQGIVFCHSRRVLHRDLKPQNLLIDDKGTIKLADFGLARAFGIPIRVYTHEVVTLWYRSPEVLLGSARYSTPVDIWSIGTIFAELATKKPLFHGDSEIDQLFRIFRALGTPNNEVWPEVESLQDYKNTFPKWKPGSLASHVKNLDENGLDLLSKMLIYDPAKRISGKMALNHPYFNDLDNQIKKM
UniProt P14635, whole entry partner: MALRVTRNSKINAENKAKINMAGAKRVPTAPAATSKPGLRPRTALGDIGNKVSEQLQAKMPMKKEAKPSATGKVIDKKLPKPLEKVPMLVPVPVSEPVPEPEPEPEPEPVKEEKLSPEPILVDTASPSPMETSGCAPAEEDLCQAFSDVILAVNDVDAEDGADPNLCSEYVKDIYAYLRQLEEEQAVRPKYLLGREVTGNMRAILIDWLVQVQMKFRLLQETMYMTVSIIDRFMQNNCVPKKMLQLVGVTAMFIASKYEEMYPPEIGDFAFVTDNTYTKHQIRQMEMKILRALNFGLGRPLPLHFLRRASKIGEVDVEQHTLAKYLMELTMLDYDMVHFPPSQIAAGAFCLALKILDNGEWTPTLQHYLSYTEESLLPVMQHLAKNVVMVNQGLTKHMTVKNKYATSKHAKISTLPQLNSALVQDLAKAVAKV

Columns and labels:
[1] = biological target: VEGF-R (vascular endothelial growth factor receptor-2) (Rattus norvegicus, UniProt O08775); test: VEGF-R screening assay (33P FlashPlate kinase assay); assay type: biochemical; details: read-out: VEGF-R IC50; Tables 1-3; >10 or >100 = no 50% inhibition at highest dose tested
[2] = biological target: CDK1 (cyclin dependent kinase 1) / cyclin B (Homo sapiens, UniProt P06493); test: CDK1 kinase assay; assay type: biochemical; details: read-out: CDK IC50; Tables 1-3; >10 or >100 = no 50% inhibition at highest dose tested

Row | SMILES | IC50 [1] | IC50 [2]
1 | OCCCNc1cncc(-c2cc(Nc3cccc(Cl)c3)ncn2)c1 | > 10 µM | –
2 | Cc1cc(-c2cncc(NCCCO)c2)nc(Nc2cccc(Cl)c2)n1 | 0.84 µM | > 10 µM
3 | CCN(CC)C(=O)Oc1cnccc1-c1cncc(Nc2cccc(Cl)c2)n1 | – | > 10 µM
4 | OCCCNc1cc(-c2cncc(Nc3cccc(Cl)c3)n2)ccn1 | 0.5 µM | 0.5 µM
5 | OCCCNc1cncc(-c2ncncc2Nc2cccc(Cl)c2)c1 | > 10 µM | > 10 µM
6 | OCCCNc1ncc(-c2cncc(Nc3cccc(Cl)c3)n2)s1 | 0.416 µM | 6.15 µM
7 | OCCCNc1cncc(-c2ncc(Nc3cccc(Cl)c3)cn2)c1 | > 10 µM | > 10 µM
8 | Oc1cnccc1-c1cncc(Nc2cccc(Cl)c2)n1 | > 10 µM | > 10 µM
9 | Clc1cccc(Nc2cncc(-c3cncc(NCC4CCOCC4)c3)n2)c1 | 0.475 µM | > 10 µM
10 | OCCCNc1cncc(-c2cncc(Nc3cccc(Cl)c3)n2)n1 | 0.372 µM | > 10 µM
